# Values quoted from earlier work in patent US12077568B2, “Engineered active single-polypeptide chain insulin analogs” (University of Houston System, priority 2018, dated 2024).
# Conditions: cited from earlier work
substance,measurement,setting,value
insulin,time to degradation after initial release into circulation,endogenously produced by beta cells,within about one hour
same,half-life in circulation,"free insulin in circulation, in vivo",4 to 6 min
